Laboratory results as given in ChEMBL document CHEMBL3612054 (Bioorg Med Chem, 2015).
Converted amounts (≈) assume the structure as drawn.

Experiments:
[1] = Solubility of the compound in 10 mM phosphate buffer at pH 7.4 after 90 mins by LC/MS analysis; assay type: physicochemical
[2] = Solubility of the compound in 10 mM phosphate buffer at pH 3 after 90 mins by LC/MS analysis; assay type: physicochemical

Row | SMILES | solubility ([1]; buffer, pH 7.4, […]) | solubility [2] | solubility at […] ([1]; phosphate buffer, pH 7.4)
1 | CC(C)[C@@H](CN1CCC(C)(c2cccc(O)c2)CC1)NC(=O)[C@H]1Cc2ccc(O)cc2CN1 | 44 µM (≈ 19.9 µg/mL) | 101 µM (≈ 45.6 µg/mL) | 
2 | CC(C)[C@@H](CN1CC[C@@](C)(c2cccc(F)c2)[C@@H](C)C1)NC(=O)[C@H]1Cc2ccc(O)cc2CN1 |  | 47 µM (≈ 22 µg/mL) | 10 µM (≈ 4.68 µg/mL)
